Key:
[1] = test system: H-Ser-Tyr-D-Ser(tBu)-Leu-Arg-Pro-NHEt
[2] = test system: H-D-Ser-Tyr-D-Ser(tBu)-Leu-Arg-Pro-NHEt

## immobilized chymotrypsin (agarose carrier, 2000 U/g)
pGlu-D-His-Trp-OMe
  Yield (%) of enzymatic peptide coupling after two hours, HPLC peak area; co-substrate H-Ser-Tyr-D-Ser(tBu)-Leu-Arg-Pro-NHEt: 7.8%
[1]
  Yield (%) of enzymatic peptide coupling after two hours, HPLC peak area; co-substrate pGlu-His-Trp-OMe: 78.8%
[2]
  Yield (%) of enzymatic peptide coupling after two hours, HPLC peak area; co-substrate pGlu-His-Trp-OMe: 0%
pGlu-His-D-Trp-OMe
  Yield (%) of enzymatic peptide coupling after two hours, HPLC peak area; co-substrate H-Ser-Tyr-D-Ser(tBu)-Leu-Arg-Pro-NHEt: 0%
pGlu-His-Trp-OMe
  Yield (%) of enzymatic peptide coupling after two hours, HPLC peak area; co-substrate H-Ser-Tyr-D-Ser(tBu)-Leu-Arg-Pro-NHEt: 78.8%
